Results from publication PMC3477312, “Characterization of Vibrio cholerae Hfq Provides Novel Insights into the Role of the Hfq C-Terminal Region” (Journal of Molecular Biology, 2012).

Molecular target: the molecule itself
Experiment: SDS-PAGE stability assay; 1 ug protein in loading buffer with 1% SDS heated at 95 °C for 0 to 300 s, 10% SDS-PAGE, hexamer and monomer bands quantified; hexamer to monomers

B1: EcHfq72 (domain or fragment, Escherichia coli, UniProt P0A6X3 1-72, looked up)
chain: MAKGQSLQDPFLNALRRERVPVSIYLVNGIKLQGQIESFDQFVILLKNTVSQMVYKHAISTVVPSRPVSHHS
notes: Hfq, Escherichia coli, N-terminal domain; stop codon inserted after the 72nd codon of Hfq in pET28[EcHfq]; also called EcHfq NTD; NTD alone of EcHfq; source: E. coli BL21(DE3), pET28[EcHfq72], purified (HisTrap, thrombin, Mono S, Superdex 200)
- half-life of hexamer in 1% SDS at 95 °C: 41.5 ± 2.4 s
